pIC50: −log10 of the molar value.
Molecular target: Serine/threonine-protein kinase PLK1 (Homo sapiens, UniProt P53350)

By UniProt entry, the sequences of proteins in these tests, tags left out.
UniProt P53350, whole entry: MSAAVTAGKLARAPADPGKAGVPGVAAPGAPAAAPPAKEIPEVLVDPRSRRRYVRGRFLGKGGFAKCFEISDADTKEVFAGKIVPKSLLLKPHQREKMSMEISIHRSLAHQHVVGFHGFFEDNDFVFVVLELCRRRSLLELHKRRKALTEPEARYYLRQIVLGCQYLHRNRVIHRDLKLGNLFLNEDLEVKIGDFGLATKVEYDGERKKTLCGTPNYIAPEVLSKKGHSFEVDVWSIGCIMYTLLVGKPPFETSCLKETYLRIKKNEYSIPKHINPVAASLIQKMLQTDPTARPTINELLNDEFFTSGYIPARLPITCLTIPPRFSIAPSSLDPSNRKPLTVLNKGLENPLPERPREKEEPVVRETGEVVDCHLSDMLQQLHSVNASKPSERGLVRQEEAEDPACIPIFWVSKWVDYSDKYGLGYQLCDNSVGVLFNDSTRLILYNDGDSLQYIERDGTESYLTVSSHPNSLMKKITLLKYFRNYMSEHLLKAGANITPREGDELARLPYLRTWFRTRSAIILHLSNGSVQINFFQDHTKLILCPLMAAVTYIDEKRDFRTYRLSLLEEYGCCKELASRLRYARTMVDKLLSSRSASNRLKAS

Question: With Cc1nn(-c2cc(Cl)cc(-c3ccccc3C(N)=O)c2)c2cc(N[C@@H](C)c3ccccc3)ncc12 [2-[3-chloro-5-(3-methyl-6-{[(1S)-1-phenylethyl]amino}-1H-pyrazolo[4,3-c]pyridin-1-yl)phenyl]benzamide] as the compound, how does the pIC50 read?
Answer: 7.38

From BindingDB's records for doi:10.1016/j.bmcl.2008.08.095 (Sunesis Pharmaceuticals, 2008)
